Measured values as given in PMC10831936 (iScience, 2024).

Sequences of proteins named here, by UniProt entry; tags and fusion partners are left off. Residues count along the entry.
UniProt P00533, 25-1210: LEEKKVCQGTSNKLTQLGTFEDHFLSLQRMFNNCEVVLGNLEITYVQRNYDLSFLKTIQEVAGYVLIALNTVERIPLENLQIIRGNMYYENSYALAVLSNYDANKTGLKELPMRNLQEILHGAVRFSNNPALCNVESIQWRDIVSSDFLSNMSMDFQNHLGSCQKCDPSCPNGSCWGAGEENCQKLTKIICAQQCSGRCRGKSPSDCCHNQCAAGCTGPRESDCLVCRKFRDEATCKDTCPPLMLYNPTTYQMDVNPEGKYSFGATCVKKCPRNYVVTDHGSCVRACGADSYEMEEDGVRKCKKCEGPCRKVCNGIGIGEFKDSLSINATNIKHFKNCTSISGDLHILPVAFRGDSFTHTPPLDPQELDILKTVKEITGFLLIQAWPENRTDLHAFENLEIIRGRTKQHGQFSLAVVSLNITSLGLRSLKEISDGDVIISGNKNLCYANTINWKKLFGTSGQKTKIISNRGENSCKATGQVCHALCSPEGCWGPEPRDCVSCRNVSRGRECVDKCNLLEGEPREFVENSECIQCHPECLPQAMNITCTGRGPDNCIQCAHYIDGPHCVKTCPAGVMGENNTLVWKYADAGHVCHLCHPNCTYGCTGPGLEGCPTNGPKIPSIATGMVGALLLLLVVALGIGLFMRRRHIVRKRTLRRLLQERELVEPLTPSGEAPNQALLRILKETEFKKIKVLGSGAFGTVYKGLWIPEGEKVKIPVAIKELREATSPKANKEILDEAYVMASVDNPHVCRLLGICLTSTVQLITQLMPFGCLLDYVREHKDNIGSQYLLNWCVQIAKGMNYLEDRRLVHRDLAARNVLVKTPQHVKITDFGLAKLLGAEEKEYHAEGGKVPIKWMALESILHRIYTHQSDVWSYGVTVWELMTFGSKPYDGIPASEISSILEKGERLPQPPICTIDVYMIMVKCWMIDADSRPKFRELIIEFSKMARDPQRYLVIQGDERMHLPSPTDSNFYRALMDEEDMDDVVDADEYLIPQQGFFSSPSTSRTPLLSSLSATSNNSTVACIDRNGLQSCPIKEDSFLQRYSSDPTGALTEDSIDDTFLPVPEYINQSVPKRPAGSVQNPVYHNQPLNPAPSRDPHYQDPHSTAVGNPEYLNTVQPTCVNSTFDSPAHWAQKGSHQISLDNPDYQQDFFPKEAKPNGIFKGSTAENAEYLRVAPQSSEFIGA

Legend:
phospho-EGFR = phospho-EGFR (Homo sapiens, UniProt P00533); assay: Western blot of p-EGFR in A549 cells
EGFR [1] = biological target: T1, EGFR (Homo sapiens, UniProt P00533); assay: ERBBprofiler barcoded split TEV assay, EGFR
EGFR [2] = biological target: T1, EGFR; assay: Split TEV firefly luciferase assay, EGFR; assay type: cell-based

IC50 (phospho-EGFR) [nM] | IC50 (EGFR [1]) [nM] | IC50 (EGFR [2]) [nM] | SMILES
0.61 | 65 | 40 | COc1cc2ncnc(Nc3cccc(Cl)c3)c2cc1OC [AG1478, AG-1478 (Tyrphostin AG-1478)]
560 | 881 | 147 | CCOc1cc2ncc(C#N)c(Nc3ccc(OCc4ccccn4)c(Cl)c3)c2cc1NC(=O)/C=C/[C@H]1CCCN1C [Pyrotinib]
